These results are taken from article PMC10287910 (Nucleic Acids Research, 2023).

pKd: −log10 of the molar value.

This assay has as its target T1, ParA2 (Vibrio cholerae, UniProt Q9KKJ2).
T1 construct: gene VC_A1115
Put plainly: biochemical.

In turn, `CNc1ccccc1C(=O)O[C@H]1[C@@H](O)[C@H](n2cnc3c(N)ncnc32)O[C@@H]1CO[P@@](=O)(O)O[P@](=O)(O)OP(=O)(O)O` [MANT-ATP] had a pKd of about 4.96.

As usually defined, the pKd is the negative decadic logarithm of the Kd, by convention in mol/L.
